Test results: US20110091994A1, “Methods for Screening Compounds for Treating and/or Preventing an Hepatitis C Virus Infection” (priority 2008, published 2011)

Assays:
[1] = target: T1, HCV ORFs (Gal4-DB fusions) (Hepatitis C virus genotype 1b, UniProt Q9WMX2); type: binding, HCV genotype 1b, isolate con1; conditions: HCV protein NS3 as bait; human protein as prey
T1 construct: expressed in transfected cells; host or cells: Saccharomyces cerevisiae MAV203 (IMAP1) / AH109 (IMAP2)

[2] = tested on: HCV ORFs (Gal4-DB fusions); type: binding, HCV genotype 1b, isolate con1; conditions: human protein listed by gene symbol; the value names the HCV protein it interacts with
[3] = target: T2, HCV proteins (Hepatitis C virus genotype 1b, UniProt Q9WMX2); assay: Validation by Y2H pairwise matrices; type: binding; conditions: validation of interaction with HCV protein NS3;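 also: yeast two-hybrid pairwise tests of interactions first found in Y2H screens of HCV bait proteins against human cDNA libraries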
T2 construct: expressed in transfected cells
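For IMAP Y2H IMAP1 (number of IST) in this document: yeast two-hybrid screens using HCV genotype 1b proteins fused to Gal4-DB as baits against prey cDNA libraries from human spleen and foetal brain, IMAP1 via transformation and IMAP2 via mating.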
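For IMAP Y2H IMAP2 (number of IST) in this document: yeast two-hybrid screens using HCV genotype 1b proteins fused to Gal4-DB as baits against prey cDNA libraries from human spleen and foetal brain, IMAP1 via transformation and IMAP2 via mating.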
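For Interaction with viral protein in this document: yeast two-hybrid screens using HCV genotype 1b proteins fused to Gal4-DB as baits against prey cDNA libraries from human spleen and foetal brain, IMAP1 via transformation and IMAP2 via mating.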

Substance	IMAP Y2H IMAP2 (number of IST) [1]	Interaction with viral protein [2]	IMAP Y2H IMAP1 (number of IST) [1]	Y2H matrices [3]
B2M	1	NS3	–	–
FTH1	–	NS3	2	+
